Results reported in US4542123A, “Composition and method for increasing brain tyrosine levels” (Massachusetts Institute of Technology, priority 1982, dated 1985).

How the values were obtained:
[1] = Serum and brain tyrosine in fasted rats, glucose 30 min before tyrosine (Example II, first set); conditions: tyrosine 100 mg/kg by intubation, alone or 30 min after glucose 3 g/kg; 1 h after tyrosine; significantly different
[2] = Brain and plasma tyrosine ratios in fasted rats, tyrosine and glucose given concurrently (Example II, second set); conditions: tyrosine 100 mg/kg, alone or concurrently with glucose 3 g/kg

N[C@@H](Cc1ccc(O)cc1)C(=O)O [Tyrosine, tyrosine]
Brain tyrosine level [1]: 16.2
Ratio of plasma tyrosine to plasma levels of its amino acid competitors ([2]; 90 min, untreated 0.100, differ significantly): 0.397
Ratio of plasma tyrosine to plasma levels of its amino acid competitors ([2]; 180 min, untreated 0.124): 0.265
